# Only a part is listed here, and it is no random draw. Activity calls are given as the source filed them. Rule as the data show it: active = inhibition above about 50% (passing the limit was not always enough); inconclusive = no clear call, values can overlap the other calls; inactive = below about 31%.
# Assay: HIV Vif self-association inhibitors, primary screen, imaging, HEK293T, single point (AID 602346)
# Conditions: HEK293T cells, Vif self-association by quenched fluorescence, 24 h, at 7.49 µM, hits give high values
row,SMILES,inhibition
1,CCC(=O)N(c1ccccc1)C1(COC)CCN(CCn2nnn(CC)c2=O)CC1,inactive: 0.0285%
2,CCC(=O)N(c1ccccc1)C1(COC)CCN(CCc2cccs2)CC1,inactive: -9.68%

# From PubChem BioAssay AID602346 (Broad Institute, 2012)
